The values that follow come from patent US6531481B2 (priority 1998, dated 2003).

The chains behind the UniProt entries cited, without tags or fusion partners. Where a name states a change or a piece, a line headed by the entry shows the natural chain unless it says otherwise.
UniProt P41144: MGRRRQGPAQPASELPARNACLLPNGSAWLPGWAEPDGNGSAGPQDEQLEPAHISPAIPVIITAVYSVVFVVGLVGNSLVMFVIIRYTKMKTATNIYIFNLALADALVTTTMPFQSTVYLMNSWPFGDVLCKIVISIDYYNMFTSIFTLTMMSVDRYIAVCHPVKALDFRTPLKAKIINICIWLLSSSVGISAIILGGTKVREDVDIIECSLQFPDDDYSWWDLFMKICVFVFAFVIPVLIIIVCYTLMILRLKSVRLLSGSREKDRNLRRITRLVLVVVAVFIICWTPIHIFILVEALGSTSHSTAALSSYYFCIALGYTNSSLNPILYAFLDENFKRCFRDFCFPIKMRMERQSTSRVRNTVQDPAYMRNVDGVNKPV

The test concerns the target kappa opioid receptor (Cavia porcellus, UniProt P41144). Briefly: Opioid binding assay, kappa-1 binding sites labeled with [3H]U69,593. Particulars: read-out: Kd of [3H]U69,593 binding; under the assay conditions.

For the substance “[^3H](5α,7α,8β)-(−)-N-methyl-N-[7-(1-pyrrolidinyl)-1-oxaspiro[4,5]dec-8-yl]benzeneacetamide”, the Kd worked out at 3.75 nM.

What is called Kd is the equilibrium constant for the complex coming apart.
